# Assay outcomes: PubChem BioAssay, Broad Institute
# PGC1a acetyl inh: inhibitors of PGC1a acetylation signal, primary screen, cell-based, U2OS, AlphaScreen, inhibitor mode; AlphaScreen anti-acetyl-lysine; with virally co-expressed GCN5 acetyltransferase; 0.17% of 350,000 active; inhibition, % at 15.6 µM;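 active = every replicate shows inhibition of at least 40%; inconclusive = mean inhibition at least 40% but some replicate below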;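 note: 0% = neutral control wells and 100% = positive control wells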
# MITF TRPM1 HTS: activators of MITF-driven TRPM1 promoter reporter, primary screen, cell-based, SK-MEL-5, luciferase, single point | SK-MEL-5 TRPM1-promoter luciferase, 24 h; % of positive control, neutral wells = 0 | activation, % at 12.5 µM | 0.75% of 300,000 active | AID 588334, 2011;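 active = mean activation of at least 80% with every replicate also reaching 80%; inconclusive = mean reaches 80% but some replicate falls short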;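 note: 0% = neutral control wells and 100% = parthenolide positive control wells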
# UUG fidelity: modulators of start codon recognition fidelity in yeast; AID 602363; hit rate 0.13% among 350,000; activity score, % at 18.7 µM; S. cerevisiae UUG-firefly luciferase reporter, luminescence/redox ratio;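 active = replicate mean at a twofold rise or more, about +100% in these data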;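 note: firefly luciferase made from a UUG start codon reports start codon fidelity; reporter light over untreated wells divided by growth signal over untreated wells; some hits fall short of that in this replicate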
# MITF TRPM1 inh: inhibitors of MITF-dependent TRPM1 promoter reporter, primary screen, cell-based, SK-MEL-5, single point, luciferase | SK-MEL-5 TRPM1 promoter luciferase, 24 h | inhibition, % at 12.5 µM | 0.83% of 330,000 active | AID 488899, 2010;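 active = mean inhibition across replicates of 60% or more, whatever share of single replicates reaches that level; inconclusive = some that reach 60%, reason not given; inactive = mean inhibition across replicates below 60%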
# Wnt act: Wnt/beta-catenin pathway activators, primary screen, cell-based, plate reader, single point; activation, % at 9.35 µM; 1.2% of 300,000 active; AID 743398, 2014; Wnt/beta-catenin reporter cell assay, activator; in the data active = activation above about 30%, passing the limit was not always enough; inconclusive = no clear call, values can overlap the other calls;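 note: 0% = neutral control wells and 100% = positive control wells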
# miR122 inh: miR-122 Renilla sensor signal increase in Huh7, primary screen, miR-122 inhibitor project, cell-based, single point, plate reader; Huh7 miR-122 Renilla luciferase sensor, 48 h; neutral wells = 0, positive control = 100; activation (reporter increase), % at 12.5 µM; 0.3% of 340,000 active; AID 602342, 2012;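 active = mean replicate activation score at least 90 and every replicate individually at or above 90; inconclusive = only one of the two criteria met; inactive = neither criterion met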;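 note: higher luciferase means less miR-122 activity so hits act as miR-122 inhibitors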
# * marks the source's active call; other numbers are inactive results; ? = inconclusive; / = no result; [ ] = remark or other dose. An excerpt weighted towards active compounds, which were near 2.1% of everything screened.
compound	Wnt act	miR122 inh	MITF TRPM1 HTS	MITF TRPM1 inh	UUG fidelity	PGC1a acetyl inh
Cc1ccccc1S(=O)(=O)N1CC[C@@H]2[C@@H](CO)N(C)c3ccc(-c4ccccc4)cc3[C@@H]21	/	102*[16.7 µM]	/	/	-9	-6
Cc1ccccc1S(=O)(=O)N1CC[C@@H]2[C@H]1c1cc(-c3cccc(F)c3)ccc1N(C)[C@H]2CO	/	6[16.7 µM]	/	/	-10	-1
COCC(=O)N1[C@H](CO)[C@@H](c2ccc(-c3cccc(F)c3)cc2)C12CN(C(=O)C1CC1)C2	/	/	/	/	/	-2
O=c1c2ccccc2ncn1-c1cccc(Cl)c1	/	-3	7	-5	-10	-5
O=c1ncn(-c2cccc(Cl)c2)c2ccccc12	44*	/	1	-3	/	/
COC(=O)c1ccc(N2CCN(c3ccccc3)CC2)nc1	25	/	100*	-102	-3	-2
Cc1ccc(N/N=C/C=C/c2ccco2)cc1	27	/	99*	-102	/	/
C=C(NC(=O)C(=C)NC(=O)c1csc(C2=NC3c4csc(n4)C4NC(=O)c5csc(n5)C(C(C)(O)C(C)O)NC(=O)C5CSC(=N5)/C(=C/C)NC(=O)C(C(C)O)NC(=O)c5csc(n5)C3(CC2)NC(=O)C(C)NC(=O)C(=C)NC(=O)C(=C)NC(=O)C(C(C)C)NC2C=Cc3c(C(C)O)cc(nc3C2O)C(=O)OC4C)n1)C(N)=O (stereo not given)	4	/	-95	94*	/	/
COCCOC(=O)c1c(C)oc2ccc(NS(=O)(=O)c3ccc(C)cc3)cc12	4	103*	9	-8	1	1
COCCOC(=O)c1c(C)oc2ccc(NS(=O)(=O)c3ccccc3)cc12	-2	3	5	-4	-5	-4
COc1cc(/C=C/c2ccc3cccc(O)c3n2)cc(OC)c1OC	65*	-22	-78	78*	-8	-7
COc1cc(/C=C/c2ccc3cccc(O)c3n2)cc(Br)c1OC	?	/	-1	-1	-11	-6
COc1cccc(/C=C/c2ccc3cccc(O)c3n2)c1	?	/	4	-6	-62	/
COc1cc(/C=C/c2ccc3cccc(O)c3n2)cc(Cl)c1OC	47*	/	-15	15	-22	/
COc1ccc(/C=C/c2ccc3cccc(O)c3n2)cc1Br	23	3	58	-64	-7	-2
Oc1cccc(/C=C/c2ccc3cccc(O)c3n2)c1	40*	/	12	-13	-48	-10
CCC(=O)Nc1ccc2c(c1)C(=O)N(C)C[C@H](OC)[C@@H](C)CN(C(=O)CN1CCOCC1)[C@H](C)CO2	/	-21[16.7 µM]	/	/	/	15
O=C(Nc1ccc(F)c(Cl)c1)c1cc(C2CCCN(C(=O)C3CC3)C2)on1 (stereo not given)	38*	-8	/	/	-35	-14
O=C(Nc1ccc(F)c(Cl)c1)c1cc(C2CCCN(S(=O)(=O)c3cccs3)C2)on1 (stereo not given)	-1	2	/	/	-23	7
CC(C)S(=O)(=O)N1CCCC(c2cc(C(=O)Nc3ccc(F)c(Cl)c3)no2)C1 (stereo not given)	32*	-6	/	/	-6	-10

# Complete entries as entered above. Order of values: Wnt act	miR122 inh	MITF TRPM1 HTS	MITF TRPM1 inh	UUG fidelity	PGC1a acetyl inh
# O=C(Nc1ccc(F)c(Cl)c1)c1cc(C2CCCN(C(=O)C3CC3)C2)on1 (stereo not given) is listed as 38*	-8	/	/	-35	-14
# COc1cc(/C=C/c2ccc3cccc(O)c3n2)cc(OC)c1OC is listed as 65*	-22	-78	78*	-8	-7
# COc1cccc(/C=C/c2ccc3cccc(O)c3n2)c1 is listed as ?	/	4	-6	-62	/
# Cc1ccc(N/N=C/C=C/c2ccco2)cc1 is listed as 27	/	99*	-102	/	/
# COC(=O)c1ccc(N2CCN(c3ccccc3)CC2)nc1 is listed as 25	/	100*	-102	-3	-2

# Remaining list, next part
compound	Wnt act	miR122 inh	MITF TRPM1 HTS	MITF TRPM1 inh	UUG fidelity	PGC1a acetyl inh
O=C(Nc1ccc(F)c(Cl)c1)c1cc(C2CCCCN2C(=O)C2CC2)on1 (stereo not given)	-4	-9	/	/	-16	-2
Cc1noc(C)c1S(=O)(=O)Nc1ccc2c(c1)C(=O)N([C@@H](C)CO)C[C@@H](C)[C@H](CN(C)Cc1ccc(C(F)(F)F)cc1)OCCCC[C@@H](C)O2	/	-15[16.7 µM]	/	/	/	1
Nc1nc(=S)c2ncn([C@@H]3O[C@H](CO)[C@@H](O)[C@H]3O)c2[nH]1	-2	-10	-70	72*	-18	6
Nc1nc(=S)c2ncn(C3OC(CO)C(O)C3O)c2[nH]1 (stereo not given)	0	/	-7	10	-19	4
Nc1ncn([C@@H]2O[C@H](CO)[C@@H](O)[C@H]2O)c(=O)n1	-11	-26	-77	79*	-7	-2
COc1nn(-c2ccccc2)c(=O)c(Cl)c1Cl	-9	/	/	84*	-8	/
O=C(CN1C(=O)c2ccccc2S1(=O)=O)c1ccc2c(c1)OCCO2	-16	1	/	88*	-10	-7
O=C(CN1C(=O)c2ccccc2S1(=O)=O)c1ccc(OC(F)F)cc1	/	16	-65	65*	-13	-1
O=C(CN1C(=O)c2ccccc2S1(=O)=O)c1ccc(Cl)cc1Cl	-11	3	-85	87*	-9	/
O=C(CN1C(=O)c2ccccc2S1(=O)=O)c1ccc2c(c1)OCCCO2	-3	1	/	82*	-6	-4
O=C(CCN1C(=O)c2ccccc2S1(=O)=O)Nc1ccc2c(c1)OCCO2	-2	2	-1	4	-7	-4
O=C(CN1C(=O)c2ccccc2S1(=O)=O)c1cccc(Br)c1	1	5	-38	40	-20	1
O=C(CN1C(=O)c2ccccc2S1(=O)=O)c1ccc(F)cc1	-4	-3	/	39	-4	-6
C[C@@H]1CN([C@@H](C)CO)C(=O)c2cccc(NS(=O)(=O)c3ccccc3)c2O[C@H]1CN(C)C(=O)Nc1ccc(F)cc1	/	3[16.7 µM]	/	/	8	-4
CC(C)NC(=O)N[C@@H]1CC[C@@H](CCNS(=O)(=O)c2ccc(F)cc2)O[C@@H]1CO	/	/	/	/	7	-1
O=S(=O)(c1cccc(F)c1)N1CC[C@@H]2[C@@H](CO)Nc3ccc(Br)cc3[C@@H]21	/	19[16.7 µM]	/	/	0	5
CC1CCN(C(=O)CN2C(=O)c3ccccc3S2(=O)=O)CC1	48*	-5	-7	7	-12	-7
CCOC(=O)c1ccc(N=NN(C)C)cc1	1	/	99*	-92	/	/
CCOC(=O)c1ccc(N)cc1	0	0	15	-15	15	/
c1ccc(NC2=Nc3cccc4cccc2c34)cc1	0	-7	12	-16	4	-4
Fc1ccc(/C=N/NC2=Nc3cccc4cccc2c34)cc1	58*	17	18	-16	-12	/
C=CCCN(CC#C[C@H]1Oc2ccccc2S(=O)(=O)N2CCC[C@@H]12)S(=O)(=O)c1ccc(C)cc1	/	/	/	/	9	-2
O=C(Nc1ccc(Oc2cccnc2)cc1)c1ccc([N+](=O)[O-])cc1	-3	/	6	-8	/	/
O=C(Nc1ccc(Nc2ccncc2)cc1)c1ccc([N+](=O)[O-])cc1	-2	-18	-86	86*	-14	-70
COc1ccc(CNC(=O)C(c2ccco2)N(C(=O)c2csnn2)c2cccc(C)c2C)cc1 (stereo not given)	/	97*	-5	8	-7	-2
